Values of other authors as cited in patent publication US20140194559A1, “Novel Inhibitor Compositions and Methods of Use” (NuFarm UK Limited, priority 2011, published 2014).

Details: hazard classification; cited from earlier work

CCC(C)c1cc([N+](=O)[O-])cc([N+](=O)[O-])c1O (centres unmarked) [DNBP, 4,6-Dinitro-2-sec-butyl phenol, reference compound]
Oral Toxicity: Yes | Toxic by Inhalation: Yes
